Each block holds one binder with its values, some of them ahead of it.
Legend:
[1] = target: T1, human IGF-1R on human tumor cells (A549, BxPC3, TC-71) (human, UniProt P08069 31-1320); assay: FACS competition with labeled R1507 on TC-71 cells; ratio against OA-Ak18-scFab-GA201
T1 construct: Endogenous receptor on human tumor cell lines; A549 and BxPC3 also express EGFR; TC-71 express IGF-1R only
Protocol: (§1) Human tumor cells (A549 or TC-71, 2×10^5 cells/well) diluted in ice-cold buffer (PBS+2% FCS, Gibco) were added to a mixture of labeled monospecific IGF-1R antibody R1507 (final concentration of 1 μg/ml) and different concentrations of unlabeled IGF1R-EGFR bispecific antibodies or unlabeled monospecific antibodies or Fab fragments as controls (final titration range of 100 to 0.002 μg/ml) in a 96-well microtiter plate. The mixture was incubated on ice for 45 minutes. Cells were washed 2 times by addition of 150-200 μl buffer (PBS+2% FCS) and subsequent centrifugation (300 g; 5 min, 4° C.). The cells were then resuspended in 200 μl fixation buffer (1× CellFix, BD #340181) containing 6.25 μl/ml 7-AAD (BD #559925) and incubated for 10-20 min on ice to allow for fixation and penetration of 7-AAD in dead cells. Fluorescent signal of the samples was analyzed by FACS and IC50 values are calculated.
(§2) In this setting, were only IGF-1R but not EGFR is expressed 1+1 bispecific antibodies can only bind to IGF-1R with one binding arm, thus differences in IGF-1R affinity might become more crucial.

Protein sequences, listed by entry. Tags and fused reporters are not part of them. Residues count along the entry.
UniProt P08069, 31-1320 limits assumed: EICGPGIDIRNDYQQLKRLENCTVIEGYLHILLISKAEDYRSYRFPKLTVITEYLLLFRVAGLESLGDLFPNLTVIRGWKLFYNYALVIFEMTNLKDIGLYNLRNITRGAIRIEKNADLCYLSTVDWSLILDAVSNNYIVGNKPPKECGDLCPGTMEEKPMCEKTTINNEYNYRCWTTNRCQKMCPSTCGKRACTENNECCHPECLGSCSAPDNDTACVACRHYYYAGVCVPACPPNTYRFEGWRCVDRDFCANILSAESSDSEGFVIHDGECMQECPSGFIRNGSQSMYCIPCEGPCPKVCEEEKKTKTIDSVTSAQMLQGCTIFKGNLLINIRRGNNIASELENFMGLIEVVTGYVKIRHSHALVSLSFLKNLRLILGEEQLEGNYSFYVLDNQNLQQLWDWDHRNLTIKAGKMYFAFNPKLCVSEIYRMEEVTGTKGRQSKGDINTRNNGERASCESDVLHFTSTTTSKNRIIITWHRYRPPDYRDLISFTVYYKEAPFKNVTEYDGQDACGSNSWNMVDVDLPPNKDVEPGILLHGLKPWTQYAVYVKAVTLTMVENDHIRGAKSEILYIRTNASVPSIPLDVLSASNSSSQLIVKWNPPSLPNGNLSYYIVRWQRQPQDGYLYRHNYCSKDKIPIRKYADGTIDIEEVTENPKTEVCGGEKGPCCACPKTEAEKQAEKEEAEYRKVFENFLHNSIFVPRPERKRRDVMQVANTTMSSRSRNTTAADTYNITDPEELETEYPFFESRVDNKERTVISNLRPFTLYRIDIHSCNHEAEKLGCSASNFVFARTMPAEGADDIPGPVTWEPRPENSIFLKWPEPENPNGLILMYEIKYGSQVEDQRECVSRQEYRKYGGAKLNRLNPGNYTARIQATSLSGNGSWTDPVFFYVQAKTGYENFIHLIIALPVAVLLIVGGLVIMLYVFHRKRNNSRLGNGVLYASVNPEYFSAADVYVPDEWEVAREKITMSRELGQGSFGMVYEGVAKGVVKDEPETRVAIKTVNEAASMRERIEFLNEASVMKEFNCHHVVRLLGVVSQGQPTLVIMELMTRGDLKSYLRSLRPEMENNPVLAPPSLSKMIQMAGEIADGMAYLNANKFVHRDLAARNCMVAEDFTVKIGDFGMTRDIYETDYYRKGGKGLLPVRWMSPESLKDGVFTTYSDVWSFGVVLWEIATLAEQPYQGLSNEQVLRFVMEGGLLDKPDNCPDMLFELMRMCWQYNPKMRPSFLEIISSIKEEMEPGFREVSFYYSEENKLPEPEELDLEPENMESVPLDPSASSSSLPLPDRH
UniProt P08637, 17-208 limits assumed: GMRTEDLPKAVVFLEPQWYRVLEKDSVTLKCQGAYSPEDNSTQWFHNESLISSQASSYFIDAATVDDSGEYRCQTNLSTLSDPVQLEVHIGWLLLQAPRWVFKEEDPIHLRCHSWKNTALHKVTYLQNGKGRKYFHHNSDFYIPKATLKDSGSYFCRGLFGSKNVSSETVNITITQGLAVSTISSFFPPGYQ

[2] = target: T1, human IGF-1R on human tumor cells …; assay: FACS competition with labeled R1507 on A549 cells; ratio against OA-Ak18-scFab-GA201
Protocol: as §1, §2

[3] = target: T1, human IGF-1R on human tumor cells …; assay: FACS competition with labeled R1507 on TC-71 cells (express IGF-1R, not EGFR)
Protocol: as §1, §2

[4] = target: T1, human IGF-1R on human tumor cells …; assay: FACS competition with labeled R1507 on A549 cells (express IGF-1R and EGFR)
Protocol: as §1, §2

[5] = target: T1, human IGF-1R on human tumor cells …; assay: cell-based or functional assay
human Fc Gamma RIIIa [6] = target: T2, human Fc Gamma RIIIa (human, UniProt P08637 17-208, limits assumed); assay: SPR (Biacore), antibody captured on immobilised huHER1-ECD, FcgRIIIa as analyte, 25 C; WT (nonglycoengineered version)
T2 construct: The methods list human FcgRIIIa(V158) and huFcgRIIIa(F158) as analytes; also called FcgRIIIa; human FcgRIIIa

[7] = target: T1, human IGF-1R on human tumor cells …; assay: cell-based or functional assay; remark: listed apart in the source
human Fc Gamma RIIIa [8] = target: T2, human Fc Gamma RIIIa; assay: SPR (Biacore), antibody captured on immobilised huHER1-ECD, FcgRIIIa as analyte, 25 C; glycoengineered (GE)

B1: OA-F13B5-scFab-GA201 (bispecific antibody, human IgG1, kappa)
heavy 1: not shown
heavy 2: not shown
light: DIQMTQSPSSLSASVGDRVTITCRASQGINNYLNWYQQKPGKAPKRLIYNTNNLQTGVPSRFSGSGSGTEFTLTISSLQPEDFATYYCLQHNSFPTFGQGTKLEIKRTVAAPSVFIFPPSDEQLKSGTASVVCLLNNFYPREAKVQWKVDNALQSGNSQESVTEQDSKDSTYSLSSTLTLSKADYEKHKVYACEVTHQGLSSPVTKSFNRGEC
fold better binding than OA-Ak18-scFab [1]: 10 fold
fold better binding than OA-Ak18-scFab [2]: ~2 fold
IC50 [3]: 4.09 nM
IC50 [4]: 0.67 nM
Inhibition of IGF-1R phosphorylation (IC50) A549 [5]: 0.1 nM
Inhibition of IGF-1R phosphorylation (IC50) BxPC3 [5]: 0.07 nM
Inhibition of IGF-1R phosphorylation (IC50) TC-71 [5]: 0.08 nM
Kd (human Fc Gamma RIIIa [6]): 33 nM
potency of IGF-1R inhibition against unmodified OA-Ak18-scFab-GA201, A549 [7]: 2 fold
potency of IGF-1R inhibition against unmodified OA-Ak18-scFab-GA201, BxPC3 [7]: 2 fold
potency of IGF-1R inhibition against unmodified OA-Ak18-scFab-GA201, TC-71 [7]: 25 fold

B2: OA-F13B5-scFab-GA201-GE (bispecific antibody, human IgG1, kappa)
heavy 1: not shown
heavy 2: not shown
light: B1 light
Kd (human Fc Gamma RIIIa [8]): 7.5 nM

Continued, values first:

fold better binding than OA-Ak18-scFab [1]: 25 fold
fold better binding than OA-Ak18-scFab [2]: ~2 fold
IC50 [3]: 1.59 nM
IC50 [4]: 0.39 nM
Inhibition of IGF-1R phosphorylation (IC50) A549 [5]: 0.05 nM
Inhibition of IGF-1R phosphorylation (IC50) BxPC3 [5]: 0.03 nM
Inhibition of IGF-1R phosphorylation (IC50) TC-71 [5]: 0.04 nM
Kd (human Fc Gamma RIIIa [6]): 64 nM
potency of IGF-1R inhibition against unmodified OA-Ak18-scFab-GA201, A549 [7]: 4 fold
potency of IGF-1R inhibition against unmodified OA-Ak18-scFab-GA201, BxPC3 [7]: 6 fold
potency of IGF-1R inhibition against unmodified OA-Ak18-scFab-GA201, TC-71 [7]: 50 fold
B3: OA-L31D11-scFab-GA201 (bispecific antibody, human IgG1, kappa)
heavy 1: not shown
heavy 2: not shown
light: B1 light

Kd (human Fc Gamma RIIIa [8]): 6.4 nM
B4: OA-L31D11-scFab-GA201-GE (bispecific antibody, human IgG1, kappa)
heavy 1: not shown
heavy 2: not shown
light: B1 light

Reference: patent publication US20140193415A1 (Hoffmann-La Roche, published 2014)
